In paper PMC5127641 (eLife, 2016):
“And” between values parts separate entries of the source, which are not always exact repeats. Equal values may be shown once.

Amino acid sequences for entries named in this document (tags omitted). A change or cut given only in a name is not applied to a line headed by its entry. Residues count along the entry.
UniProt Q07820, 172-327: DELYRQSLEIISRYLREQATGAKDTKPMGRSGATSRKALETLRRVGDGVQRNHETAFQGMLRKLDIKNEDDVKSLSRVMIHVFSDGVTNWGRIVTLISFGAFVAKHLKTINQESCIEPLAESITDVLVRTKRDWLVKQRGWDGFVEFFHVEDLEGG
UniProt Q07817, 1-209: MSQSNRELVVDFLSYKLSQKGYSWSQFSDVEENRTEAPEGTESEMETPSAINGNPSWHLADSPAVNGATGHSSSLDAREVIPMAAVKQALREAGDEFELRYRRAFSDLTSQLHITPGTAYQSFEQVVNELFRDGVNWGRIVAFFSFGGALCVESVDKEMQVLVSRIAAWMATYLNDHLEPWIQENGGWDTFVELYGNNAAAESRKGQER
UniProt P10415: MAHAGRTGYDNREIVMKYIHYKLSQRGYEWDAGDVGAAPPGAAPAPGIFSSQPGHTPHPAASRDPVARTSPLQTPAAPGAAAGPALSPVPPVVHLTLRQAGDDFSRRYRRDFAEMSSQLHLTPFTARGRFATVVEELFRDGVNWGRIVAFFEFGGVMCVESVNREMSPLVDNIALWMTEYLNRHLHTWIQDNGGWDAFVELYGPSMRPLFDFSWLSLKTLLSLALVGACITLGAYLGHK

Legend:
Test in all cases: BLI; biotinylated BCL2 homolog (25 nM) immobilised on streptavidin biosensors, designed protein in solution at defined concentrations; Octet RED96; 10 mM HEPES pH 7.4, 150 mM NaCl, 3 mM EDTA, 0.05% surfactant P20, 0.5% non-fat dry milk; titrations in triplicate, 1:1 binding model
Details in all cases: both partners purified
Bfl-1 = molecular target: T1, Bfl-1 (human, UniProt Q16548 1-175, biotin (enzymatic, BirA))
T1 construct: Bfl-1, human pro-survival BCL2 homolog; not shown: avi, C-terminal, kept
T1 sequence (looked up): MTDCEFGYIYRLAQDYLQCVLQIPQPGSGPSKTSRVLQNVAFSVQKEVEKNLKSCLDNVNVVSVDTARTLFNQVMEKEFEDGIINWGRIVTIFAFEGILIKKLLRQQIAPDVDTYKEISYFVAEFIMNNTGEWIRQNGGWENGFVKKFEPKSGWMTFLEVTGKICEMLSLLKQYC

Mcl-1 = Mcl-1 (human, UniProt Q07820 1-350, biotin (enzymatic, BirA))
Bcl-xL = Bcl-xL (human, UniProt Q07817-1 1-233, biotin (enzymatic, BirA))
Bcl-2 = molecular target: T2, Bcl-2 (human, UniProt P10415 1-239, biotin (enzymatic, BirA))
T2 construct: Bcl-2, human pro-survival BCL2 homolog; not shown: avi, C-terminal, kept

Bcl-w = molecular target: T3, Bcl-w (human, UniProt Q92843 1-193, biotin (enzymatic, BirA))
T3 construct: Bcl-w, human pro-survival BCL2 homolog; not shown: avi, C-terminal, kept
T3 sequence (looked up): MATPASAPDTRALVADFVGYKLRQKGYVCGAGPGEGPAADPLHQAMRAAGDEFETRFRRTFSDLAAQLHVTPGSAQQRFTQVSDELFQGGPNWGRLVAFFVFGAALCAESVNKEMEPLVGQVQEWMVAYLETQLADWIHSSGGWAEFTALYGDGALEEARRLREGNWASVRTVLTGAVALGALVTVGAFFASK

kon (Bfl-1): 98700 M⁻¹ s⁻¹ and 112000 M⁻¹ s⁻¹ and 148000 M⁻¹ s⁻¹
koff (Mcl-1): 0.0615 s⁻¹ (2×) and 0.0733 s⁻¹
koff (Bcl-xL): 0.0957 s⁻¹ and 0.106 s⁻¹ and 0.111 s⁻¹ and 0.104 s⁻¹
kon (Bcl-xL): 190000 M⁻¹ s⁻¹ and 191000 M⁻¹ s⁻¹ and 201000 M⁻¹ s⁻¹
koff (Bcl-2): 0.01 s⁻¹ and 0.0105 s⁻¹
kon (Bcl-2): 106000 M⁻¹ s⁻¹ (2×) and 96400 M⁻¹ s⁻¹
Kd (Bcl-w): 3.99 µM and 4.14 µM and 3.19 µM
koff (Bcl-w): 0.0858 s⁻¹ and 0.0865 s⁻¹ and 0.0884 s⁻¹
kon (Bcl-w): 21500 M⁻¹ s⁻¹ and 20900 M⁻¹ s⁻¹ and 27800 M⁻¹ s⁻¹
B1: F-ECM04 (designed binder)
chain: ADPKKVLDKAKDQAENRVRELKQKLEELYKEARKLDLTQEMRKKLEVAALGAVLAAHGDILNAIMQAKEEADKLKKAGLVNSQQLDELKRRLEELKEEALRKASDYGKEFHLKRRY
